Measurements as given in patent publication US11219598B2, “Ophthalmic drug sustained release device” (PUBLIC UNIVERSITY CORPORATION NAGOYA CITY UNIVERSITY, priority 2016, dated 2022).

Assay: Drug release test of cetuximab-containing sustained release device implanted extraocularly in rabbit
Format: in vivo
Description: The hollow device (FIGS. 6(A) and (B)) made of VisiJet (registered trademark) Crystal (ultraviolet curable acrylic resin) was produced by using a three-dimensional (3D) printer (Projet 3510HD plus). After filling of the hollow device with a cetuximab solution as an antibody drug, it was subjected to freeze drying treatment. The properties of the sustained release device 10, which was produced in this manner and filled with cetuximab as a porous body, were investigated. Comparison was made between the case where air was used and the case where a sufficient amount of SF6 was substituted for air (SF6 enclosed), just before transplantation, as the gas to be filled in the device.
After a rabbit was anesthetized by intramuscular injection of Ketalar and Selactar, the pupil of the right eye was dilated with a […] hydrochloride ophthalmic solution (Mydrin-P (registered trademark), Santen Pharmaceutical Co., Ltd.). Next, after surface anesthesia by ocular instillation of oxybuprocaine hydrochloride (Benoxil ophthalmic solution, Santen Pharmaceutical Co., Ltd.), the conjunctiva was incised to expose the sclera, and a sclerocornea tunnel was prepared. […]
After surgery, anterior chamber water was sucked and collected periodically, and cetuximab in the anterior chamber water sample was quantified with an ELISA kit. […]

In the case of cetuximab, the “duration of sustained release (cetuximab in anterior chamber water, ELISA)” value (freeze-dried cetuximab in hollow device 10, extraocular implant, tube tip in anterior chamber, rabbit) is reported as ≥ 6 months and the “suitability for long-term sustained release, SF6 enclosed versus air enclosed” value (freeze-dried cetuximab in hollow device 10, rabbit, gas in device SF6 compared with air) is reported as “more suitable for long-term sustained release”.
